Test results as given in patent US20260132141A1, “PROTEIN PHOSPHATASE 2A ACTIVATORS” (University of Florida Research Foundation, Incorporated, priority 2022, published 2026).

How the values were obtained:
[1] = system: normal keratinocyte (HaCaT) cells; test: cell viability screen in noncancerous HaCaT cells; format: cell-based; settings: HaCaT versus CRC cells; tested form: bromide
Description: FIGS. 14A-14C depict cell viability screen of PPA24, PPA27, iHAP1, and NSC49L in normal keratinocyte (HaCaT) (FIG. 14A) and epithelial (FHC) (FIG. 14B) cells, where the compounds were able to showcase selectivity to cancerous cells vs. noncancerous cells. FIG. 14C depicts IC50 concentrations of the compounds in the cells. Analyses were done using GraphPad Prism 7.0 Software.
The compounds PPA24, PPA27, iHAP1, and NSC49L were screened in noncancerous cell lines to observe the selectivity these compounds have towards cancerous cells by assessing the differences in IC50 concentrations. […] The preliminary data presented in the FHC cells, indicated more tolerability towards all of the compounds, with the exception of PPA27, as compared to CRC and HaCaT cells (FIGS. 14A-14C).

[2] = system: HCT116 cells; test: oxidative stress (ROS) analysis, Muse Cell Analyzer; settings: HCT116, 24 hrs at 5 μM; tested form: bromide
Description: FIG. 13 depicts analysis of Oxidative Stress initiated by PPA24 in CRC. HCT116 cells were treated with PPA24 at 2.5 or 5 μM for 3,6, or 24 h before measuring oxidative stress. ROS (+) cells are indicated as M2. ROS (−) cells are indicated by M1 in the above graphs. All cells were analyzed with a Muse Cell Analyzer.
(§1) Though the exact role oxidative stress and PP2A play together is not known, in some cases reactive oxygen species (ROS) increase, decrease, or have no effect on PP2A activity. There have been links between PP2A activation leading to an increase in oxidative stress induced apoptosis. Due to this link, the ability of PPA24 to induce oxidative stress in HCT116 cells was investigated. […] This coincides with the previous apoptosis data indicating significant cell death occurring at these same conditions. (FIG. 13)

[3] = system: CRC cells; test: apoptosis measurement in CRC cells; settings: 24 hrs at 5 μM; tested form: bromide
Description: FIGS. 7A-7B depict measurement of apoptosis in CRC cells after treatment with PPA24, PPA27, iHPA1, and NSC49L. All the cells were treated with PPA-24, PPA-27, iHAP1, and NSC49L at concentrations of 2.5, 5, and 10 M for 24 hrs. FIG. 7A depicts apoptosis measured through Caspase 3/7 and 7-AAD staining. FIG. 7B depicts apoptosis measured through Annexin V and 7-AAD staining. Apoptosis measurement was obtained using a Muse Cell Analyzer.
Apoptosis was measured in CRC cells after treatment with PPA24, PPA27, iHPA1, and NSC49L. All the cells were treated with PPA-24, PPA-27, iHAP1, and NSC49L at concentrations of 2.5, 5, and 10 μM for 24 hrs. Apoptosis was measured through either Caspase 3/7 and 7-AAD staining or Annexin V and 7-AAD staining. Apoptosis measurement was obtained using a Muse Cell Analyzer.
as §1

[4] = system: HCT116 cells; test: combination cell viability (checkerboard assay, combination index); settings: CRC cells, with oxaliplatin and 5-FU; tested form: bromide
Description: FIGS. 15A-15B depict cell viability data measuring the combination index of PPA24 with Gemcitabine in HCT116. FIG. 15A depicts a heatmap of cell viability for HCT116 cells treated for 48 hrs with PPA24 and Gemcitabine in a checkerboard assay. FIG. 15B depicts combination index (CI) analysis of PPA24 with Gemcitabine in HCT116 cells, showing synergy occurring with this combination. The CI analysis was completed using SiCoDEA.
The combination of PPA24 and Gemcitabine, a clinically used cancer drug, in the CRC cells, worked synergistically to decrease the cell viability at lower concentrations than possible when used alone.

[5] = system: NCI-60 panel of cancer cell lines; test: NCI-60 panel screen; settings: screened at 10 μM; tested form: bromide
Description: FIG. 9 depicts the results from PPA24 screened at 10 μM in the NCI-60 panel of cancer cell lines, indicating an ability to decrease cell viability in most but not all cancer cell lines tested. The varying responses per cell line indicates PPA24 having selectivity towards certain cellular characteristics.
FIG. 10 depicts the results from PPA27 screened at 10 μM in the NCI-60 panel of cancer cell lines, indicating a selectivity regarding the cancer cell line in which PPA27 can induce an effect.

SMILES: Clc1ccc2c(c1)N(CCCC[N+]13CN4CN(CN(C4)C1)C3)c1ccccc1S2
- IC50 in HaCaT cells relative to the IC50 concentration range in CRC cells [1]: approximately 2 fold
- ROS positive cells [2]: an increase in ROS positive cells
- apoptosis / cell death [3]: significant cell death
- synergy in combination with oxaliplatin and 5-FU [4]: no synergy was observed
- effect on cell viability in the NCI-60 panel [5]: decrease cell viability in most but not all cancer cell lines tested
